Results from ChEMBL document CHEMBL5154831 (J Med Chem, 2022).

Protein sequences, listed by entry. Tags and fused reporters are not part of them.
UniProt Q00788, whole entry: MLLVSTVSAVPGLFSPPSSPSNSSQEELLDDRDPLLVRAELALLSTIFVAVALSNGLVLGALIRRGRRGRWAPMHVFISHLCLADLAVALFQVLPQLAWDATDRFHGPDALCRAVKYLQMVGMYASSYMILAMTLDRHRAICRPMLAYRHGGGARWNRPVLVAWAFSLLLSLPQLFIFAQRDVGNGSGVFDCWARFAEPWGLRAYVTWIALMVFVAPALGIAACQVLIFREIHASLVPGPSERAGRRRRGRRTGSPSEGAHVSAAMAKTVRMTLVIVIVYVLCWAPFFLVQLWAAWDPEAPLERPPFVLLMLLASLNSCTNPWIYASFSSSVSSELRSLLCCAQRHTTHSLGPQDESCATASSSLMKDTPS

Target: Vasopressin V2 receptor (Rattus norvegicus) (UniProt Q00788)
Assay: Ex vivo receptor occupancy at V2R in isolated perfused Sprague-Dawley rat kidney assessed as dissociation half life at 0.1 uM incubated for 30 mins by LC-MS analysis
Format: functional, tissue-based

SMILES: Cc1ccccc1C(=O)Nc1ccc(C(=O)N2CCCC(NCCCN3CCOCC3)c3cc(Cl)ccc32)c(C)c1 (stereo unspecified)
- T1/2: 56 min
